The text below walks through data of patent US20220389013A1, “PYRIDOPYRIMIDINONE COMPOUNDS AND APPLICATIONS THEREOF” (BeBetter Med Inc., priority 2020, published 2022).

For this assay, the system named is MIA Paca2 T2 xenograft tumor. Nature of the assay: MIA Paca2 T2 human pancreatic cancer xenograft mouse subcutaneous model. Particulars: 100 mg/kg, po, qd, 28 days. (Xenograft models place foreign cells or tissue in a host animal.)

Values joined by “and” are separate entries in the source; they are usually repeats but may differ in a detail not shown here. Equal entries are not always repeated.

With `C=CC(=O)N1CCN(c2nc(=O)n(-c3c(C)ccnc3C(C)C)c3nc(-c4c(O)cccc4F)c(F)cc23)[C@@H](C)C1` (atropisomer, axis not shown) [AMG510, reference compound], the “Antitumor activity T/C value (%)” value was −96% and −95.7%.
